# Ab-14 light chain CDR variants: yeast mating affinities

The measurements come from Engelhart et al. 2022 (doi:10.1038/s41597-022-01779-4) through the FLAb antibody collection.

Antigen: PDVDLGDISGINAS, a 14-residue peptide of the SARS-CoV-2 spike HR2 region.

The variants keep the heavy chain, the linker and the frameworks of Ab-14 (scFv order VH, a 15-residue (Gly4Ser)3 linker, VL).
VH: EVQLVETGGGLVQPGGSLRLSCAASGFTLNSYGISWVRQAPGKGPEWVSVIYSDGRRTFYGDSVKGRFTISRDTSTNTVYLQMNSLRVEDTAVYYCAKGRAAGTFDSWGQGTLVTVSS
VL: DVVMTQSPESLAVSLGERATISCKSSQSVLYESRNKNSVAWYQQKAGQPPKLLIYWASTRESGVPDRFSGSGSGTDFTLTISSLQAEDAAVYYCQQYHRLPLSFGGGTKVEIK

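Variants in AAYL50 differ from the parent at up to three CDR positions; double and triple changes were sampled at random. The assay is AlphaSeq: two haploid yeast populations carry antibody and antigen on their surface. Pairs that bind mate more often; barcode pairs of the diploids are counted by sequencing. The ratio of observed to expected reads was calibrated, replicate by replicate, on BCL2-family standards whose Kd was known from biolayer interferometry. Each pool was mated in three replicate cultures.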

Substitutions are numbered in sequence along the VL above, starting at 1 (not Kabat).
The read-out is the apparent dissociation constant on a log10 scale (nM): the lower, the stronger.
Averages over replicates are reported, and they cover detected replicates only.
An entry "nd" has no value in the source: the pair was not observed among the diploids in any replicate. This suggests poor binding but is not conclusive.
Background: pairings of library AAYL50 with three empty control strains gave a value in 18% of cases (median 4.19, 5th percentile 2.99). Values in that range, when seen in few replicates, are hard to tell from nonspecific mating.
In this assay the parent's reference entry averaged 0.65; its copy inside this library read 1.68.

changes	mean log10 Kd (nM)	seen in
Y31D/K36M/L100P	5.62	2 of 3
S26M/L30K/W56V	4.59	1 of 3
S26I/W56N	-0.36	3 of 3
S28R/L30P/S33Q	1.05	3 of 3
R34D/S58M/S62Y	0.84	3 of 3
Q27K/S38P/Q95I	4.65	3 of 3
V29E/E61I/R99H	0.20	3 of 3
K24E/S26P/V39P	nd	0 of 3
S25T/S33E/E61D	0.63	3 of 3
Q27R/R99V/S103L	1.99	3 of 3
S28M/H98D/L100Q	1.80	3 of 3
S28A/K36H	1.09	3 of 3
Q27P/N35M/R60P	4.84	1 of 3
S33E/V39Q/P101S	nd	0 of 3
V29H/R99P/L102T	3.39	1 of 3
K36F/Q95K/Y97N	2.95	3 of 3
S33Y/V39D/R60F	3.67	1 of 3
S25R/Y31V/K36E	1.50	3 of 3
S38C/A57Y/R99E	nd	0 of 3
V39T/R60N/P101G	6.38	1 of 3
S25H/N35F/P101T	nd	0 of 3
S33I/V39P/R60F	nd	0 of 3
Q27F/N35T/S38V	nd	0 of 3
S26M/V39K/A40F	3.05	1 of 3
Y97R/H98V/L102E	nd	0 of 3
Q27M/N37L/P101W	4.19	1 of 3
S26T/N35V	1.32	3 of 3
Q95A/Q96K/P101A	2.17	3 of 3
N35G/A40H/R99V	nd	0 of 3
V39P/E61N/Y97N	3.82	1 of 3
S58T/H98L/S103E	3.41	2 of 3
S25P/V29H/Q96I	nd	0 of 3
S25E/S26F/N35R	4.67	2 of 3
S25I/N37Q/R99A	0.63	3 of 3
Q27I/S58P/S62P	nd	0 of 3
S28P/S33Q/Y97K	1.38	3 of 3
V29F/S58I/Q95L	nd	0 of 3
S33E/N35C/A40V	5.24	2 of 3
K24E/Q95G/L100C	3.41	3 of 3
Y31Q/Y97N/H98L	3.06	2 of 3
K24N/V29G/T59R	1.48	3 of 3
K36H/S38L/V39L	nd	0 of 3
N37A/E61H	1.41	3 of 3
E32Y/Y97L/L100Y	nd	0 of 3
E61Q/R99G/S103E	nd	0 of 3
K36S/S58D/Q95A	3.05	3 of 3
S28P/R60L/R99G	0.89	3 of 3
N37D/Q96E	3.13	3 of 3
E32G/S58G/S103V	1.34	3 of 3
S28K/N35G/N37M	1.81	3 of 3
S38A/S58N/Q95M	0.84	3 of 3
V29D/A57P/S58A	nd	0 of 3
L30I/W56L/Y97V	1.67	3 of 3
S28H/N35H/E61F	2.07	3 of 3

Top 4 of the variants detected in all replicates, tightest first:

{"changes": "S26I/W56N", "mean log10 Kd (nM)": "-0.36", "seen in": "3 of 3"}
{"changes": "V29E/E61I/R99H", "mean log10 Kd (nM)": "0.20", "seen in": "3 of 3"}
{"changes": "S25T/S33E/E61D", "mean log10 Kd (nM)": "0.63", "seen in": "3 of 3"}
{"changes": "S25I/N37Q/R99A", "mean log10 Kd (nM)": "0.63", "seen in": "3 of 3"}